Tests used:
[1] = in vivo; settings: rat, po
[2] = in vivo; settings: mouse, po
Protocol: With respect to the foregoing test compounds, the acute toxicity was examined by employing mice according to the following method.
Groups of male mice of the dd type having a body weight of 18 to 22 g, each, group consisting of 5 mice, were tested to determine the acute toxicity. The test compound was orally administered in a dosage indicated in Table 3a in the form suspended in 5% gum arabic liquor. The determination was conducted 7 days after the administration. Further, the LD50 values were calculated according to the method of Lichfield-Wilcoxon.

## Cc1cccc(Nc2ccccc2C(=O)O)c1C [Compound M, mefenamic acid, reference compound]
[1]
  LD50: 730 mg/kg
[2]
  LD50 at 168 h: 1050 mg/kg

Source: patent US3989746A, “Substituted naphthyl anthranilic acids” (Ikeda Mohando Co., Ltd., priority 1972, dated 1976)
